System: Balb/C mice
Test: In vivo acute toxicity assay
Details: intravenous injection, three mice
Experimental: To evaluate the toxicity of compound 10b, an acute toxicity assay was performed using Balb/C mice. After the administration of cucurbitacin B or compound 10b by intravenous injection, the clinical symptoms, deaths, and body weight were observed.
Five-week-old Balb/C mice were purchased from the Chinese Academy of Sciences and maintained under specific pathogen free (SPF) conditions. The mice were divided into a control group, a cucurbitacin B group, and a compound 10b group. The control group mice were treated with vehicle buffer intravenously. The cucurbitacin B group mice were treated with cucurbitacin B at doses of 2 mg/kg, 5 mg/kg, 10 mg/kg, 20 mg/kg, and 50 mg/kg, respectively (three mice each dose). The compound 10b group mice were treated with compound 10b at doses of 2 mg/kg, 5 mg/kg, 10 mg/kg, 20 mg/kg, and 50 mg/kg respectively (three mice each dose). The clinical symptoms, deaths, and body weight were observed and recorded.

Measured: percentage of death

cucurbitacin B [Compound 1, reference compound]
3/3: 2 mg/kg | 5 mg/kg | 10 mg/kg | 20 mg/kg | 50 mg/kg
